## Antibody variant affinities, Ab-14 heavy chain, assay B

Antigen: PDVDLGDISGINAS, a 14-residue peptide of the SARS-CoV-2 spike HR2 region.

Each scFv is VH, three GGGGS repeats, VL, as in the parent Ab-14, and differs from it in the CDRs of the heavy chain only.
VH: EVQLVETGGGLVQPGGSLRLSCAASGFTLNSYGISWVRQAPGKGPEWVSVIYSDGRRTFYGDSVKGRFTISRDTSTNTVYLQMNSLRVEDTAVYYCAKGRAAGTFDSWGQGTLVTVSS
VL: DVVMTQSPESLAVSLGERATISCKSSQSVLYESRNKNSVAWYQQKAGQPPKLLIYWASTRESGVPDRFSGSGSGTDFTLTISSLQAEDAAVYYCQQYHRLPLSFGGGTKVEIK

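These sequences belong to a second round, designed from the earlier measurements on random variants of the parent. Several design methods are mixed in this list. The scFvs were displayed on barcoded MATa yeast, the peptide on MATalpha yeast. After mating in shaken culture at 30 °C for 16 h, diploids were selected and their barcode pairs sequenced. Read counts were normalised to the haploid input and turned into Kd by a linear fit to BCL2-family pairs of known affinity, for each replicate. The assay was run in six technical replicates.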

Variants are written as CDR1, CDR2 and CDR3 of the heavy chain (limits as in the source). Parent: GFTLNSYGIS, VIYSDGRRTFYGDSVK, GRAAGTFDS. Numbers give log10(Kd / nM), so 0 is 1 nM and 3 is 1 µM. Smaller is tighter. The mean shown is taken over the replicates in which the pair was detected. A pair that was not seen in any replicate is written "nd"; this usually means weak binding, but a binder can also be missed. The list is sorted by this average, lowest first, undetected variants last. A sequence measured in both rounds can read differently, since the two assays cover different ranges.

For GFDLNEYGIS | VIYADGQRTAYADSVK | GGVAGTFDV, the assay gave -0.56 (6 of 6 replicates; controls 0 of 18).
For GFDLNEYGIS | VIYADGRRTYYIDSVK | GEQAGTFDV, the assay gave -0.45 (6 of 6 replicates; controls 0 of 18).
For GFDLNEYGIS | VIYADGRRTAYSDSVK | GEAAGTFDM, the assay gave -0.41 (6 of 6 replicates; controls 0 of 18).
For GFDLDEYGIS | VIYADGRRTFYIDSVK | GETAGTFDN, the assay gave -0.41 (6 of 6 replicates; controls 0 of 18).
For GFDLDEYGIS | VIYADGVRTAYADDVK | GNVAGTFDI, the assay gave -0.40 (6 of 6 replicates; controls 0 of 18).
For GFDLNEYGIS | VIYADGRRTAYIDSVK | GHNAGTFDS, the assay gave -0.38 (6 of 6 replicates; controls 1 of 18).
For GFDLNEYGIS | VIYADGVRTAYADNVK | GNQAGTFDI, the assay gave -0.26 (6 of 6 replicates; controls 0 of 18).
For GFDLNEYGIS | VIYADGKRTAYADDVK | GNEAGTFDI, the assay gave -0.23 (6 of 6 replicates; controls 0 of 18).
For GFSLNSYGIS | VIYSDGRRTFYGDSVK | GVTAGTFDS, the assay gave -0.07 (6 of 6 replicates; controls 0 of 18).
For GFDLNEYGIS | VIYADGKRTAYSDSVK | GTNAGTFDQ, the assay gave -0.03 (6 of 6 replicates; controls 0 of 18).
For GFDLNEYGIS | VIYADGRRTFYTDSVK | GTQAGTFDV, the assay gave 0.00 (5 of 6 replicates; controls 0 of 18).
For GFDLNEYGIS | VIYADGVRTAYADNVK | GNTAGTFDV, the assay gave 0.02 (6 of 6 replicates; controls 0 of 18).
For GFDLDEYGIS | VIYADGVRTAYADSVK | GNTAGTFDQ, the assay gave 0.05 (6 of 6 replicates; controls 0 of 18).
For GFTLESYGIS | VIYSDGRRTFYGDSVK | GRVAGTFDT, the assay gave 0.34 (3 of 6 replicates; controls 0 of 18).
For GFDLNEYGIS | VIYADGRRTFYSDSVK | GTVAGFFDQ, the assay gave 0.46 (5 of 6 replicates; controls 0 of 18).
For GFDINEYGIS | VIYADGSRTAYADTVK | GQWGCVFYV, the assay gave 0.49 (1 of 6 replicates; controls 0 of 18).
For GFSLNSYGIS | VIYSDGRRTFYGDSVK | GRVAGTFDV, the assay gave 0.67 (6 of 6 replicates; controls 0 of 18).
For GFELNKYGIS | VIYSDGRRTFYGDSVK | GQAAGTFDS, the assay gave 0.80 (6 of 6 replicates; controls 1 of 18).
For GFLLNDYGIS | VIYSDGRRTFYHDSVK | GRAAGTFDS, the assay gave 0.81 (6 of 6 replicates; controls 0 of 18).
For GFDLNEYGIS | VIYADGLRTFYTDSVK | GEFAGTFDQ, the assay gave 1.01 (6 of 6 replicates; controls 0 of 18).
For GFPLNSYGIS | VIYSDGRRTFYVDSVK | GQLAGTFDS, the assay gave 1.03 (1 of 6 replicates; controls 0 of 18).
For GFDLNEYGIS | VIYADGQRTAYADSVK | GNNAGTFDM, the assay gave 1.07 (6 of 6 replicates; controls 0 of 18).
For MFDLNSYGIS | VIYSDGRRTFYGDSVK | GNEAGTFDS, the assay gave 1.40 (6 of 6 replicates; controls 0 of 18).
For GFSLNSYGIS | VIYSDGRRTHYGDSVK | GAAAGTFDS, the assay gave 1.48 (4 of 6 replicates; controls 0 of 18).
For GFKLDEYGIS | VIYADGHRVAVSDKVK | GHNVGAFFV, the assay gave 1.63 (1 of 6 replicates; controls 0 of 18).
For GFHLNSYGIS | VIYSDGRRTFYDDSVK | GKLAGTFDS, the assay gave 1.70 (5 of 6 replicates; controls 1 of 18).
For GFDLNEYGIS | VIYADGLRTSYDDSVK | GQVAGTFDQ, the assay gave 2.00 (1 of 6 replicates; controls 1 of 18).
For GFTLNSYGIS | VIYSDGRRTFYGDSVK | GEAAGTFDN, the assay gave 2.02 (4 of 6 replicates; controls 0 of 18).
For GFTLNSYGIS | VIYSDGRRTFYGDSVK | GRAAGTGDS, the assay gave 2.69 (1 of 6 replicates; controls 0 of 18).
For GFTLNSYGIS | VIYSDGRRTFYGDSVK | GSAAGTVDS, the assay gave nd (0 of 6 replicates; controls 0 of 18).
For GFTLSEYGIS | VIYSDGRRVFYVQFVK | GRAEGTFLT, the assay gave nd (0 of 6 replicates; controls 0 of 18).
For GFDLNEYGIS | VIYADGMRTFYADKAK | GNAGIVVEV, the assay gave nd (0 of 6 replicates; controls 0 of 18).
For GFTLNQYGIS | VIYSDGQRTFYGDKVK | GRAADTFDD, the assay gave nd (0 of 6 replicates; controls 0 of 18).
For GFTLNEYGIS | VIYSDGRRTFYGDSVK | GRAAVTFDE, the assay gave nd (0 of 6 replicates; controls 0 of 18).
For GFTLNSYGIS | VIYSDGRRTFYKDSVK | GEAAGTFDK, the assay gave nd (0 of 6 replicates; controls 0 of 18).
For GFNLDEYGIS | VIYADGRRTFYQDSVK | GEGAGTFDQ, the assay gave nd (0 of 6 replicates; controls 0 of 18).
For GKSLDEYGIS | VIYADGMRTMYADKFK | GKLTAGSTL, the assay gave nd (0 of 6 replicates; controls 0 of 18).
For GFWLNEYGIS | VIYSDGRRTFYHDSVK | GRAAVTFDT, the assay gave nd (0 of 6 replicates; controls 0 of 18).
For GFDLNEYGIS | VIYADGKRTAYLQNVK | GVNAGFDQY, the assay gave nd (0 of 6 replicates; controls 0 of 18).
For GFTLNSYGIS | VIYSDGRRTFYGDSVK | GRAAITFDS, the assay gave nd (0 of 6 replicates; controls 0 of 18).
For GFWLNSYGIS | VIYSDGRRTFYGDSVK | GRAAGIFRS, the assay gave nd (0 of 6 replicates; controls 0 of 18).

A selection of 4 entries from above:

With GKSLDEYGIS | VIYADGMRTMYADKFK | GKLTAGSTL the result was nd (0 of 6 replicates; controls 0 of 18).
With GFDLNEYGIS | VIYADGKRTAYSDSVK | GTNAGTFDQ the result was -0.03 (6 of 6 replicates; controls 0 of 18).
With GFLLNDYGIS | VIYSDGRRTFYHDSVK | GRAAGTFDS the result was 0.81 (6 of 6 replicates; controls 0 of 18).
With GFTLNSYGIS | VIYSDGRRTFYKDSVK | GEAAGTFDK the result was nd (0 of 6 replicates; controls 0 of 18).

Nonspecific signal, from three strains lacking the peptide, appeared in 1% of pairings of all heavy chain designs, centred on 2.08 (5% of these signals below 0.84); values are not corrected for it. For each scFv, signals with the empty controls are counted beside the result. In the paper, a design with two or fewer of six values counts as a poor binder. Of ten entries with the parent sequence, four were seen in most replicates (averages 0.34 to 2.37), three in one and three in none, so single entries are noisy.

Values reported by Li et al. 2023, doi:10.1038/s41467-023-39022-2 (FLAb copy).